According to publication PMC5439695 (PLoS ONE, 2017):

System: mitochondrial membrane potential (MMP)

Substance | disrupt MMP
1-Ethyl-3-methylimidazolium diethylphosphate | 4.83 log10(M)*-1
Triethyltin bromide | 7.97 log10(M)*-1
